Source: US7214703B2, “Pyrrolidinohydrochinazolines” (Boehringer Ingelheim International GmbH, priority 2003, dated 2007)

Protein sequences, listed by entry. Tags and fused reporters are not part of them.
UniProt P51677, whole entry: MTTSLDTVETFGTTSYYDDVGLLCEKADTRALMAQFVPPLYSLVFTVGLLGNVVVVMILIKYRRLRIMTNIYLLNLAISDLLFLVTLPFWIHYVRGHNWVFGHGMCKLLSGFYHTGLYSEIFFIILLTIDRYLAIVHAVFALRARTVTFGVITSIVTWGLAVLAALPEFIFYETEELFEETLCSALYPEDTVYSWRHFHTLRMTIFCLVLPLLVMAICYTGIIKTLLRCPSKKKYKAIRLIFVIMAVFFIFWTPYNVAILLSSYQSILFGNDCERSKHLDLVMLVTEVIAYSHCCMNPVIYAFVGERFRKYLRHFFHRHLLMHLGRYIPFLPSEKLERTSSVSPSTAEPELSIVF

What follows are molecules tested against human chemokine receptor CCR3 (Homo sapiens, UniProt P51677) (assay: CCR3 receptor binding assay (SPA, 125I-eotaxin-1, membranes of hCCR3 transfected K562 cells)). Settings: read-out: Affinity (Ki-value); CCR3-Receptor Binding Protocol, radioligand 125I-eotaxin-1.

First: N=c1c2c3c(sc2nc2n1CCC2=Cc1ccccc1Br)CCCC3
Second: CC(C)(C)c1csc2nc3n(c(=N)c12)CCC3=Cc1ccccc1Br
The Ki of the first is lower: 100 to 1000 nM for the first, 1000 to 10000 nM for the second.

`N=c1c2c(Cl)cccc2nc2n1CCC2=Cc1ccccc1Br` and `Cc1cccc2nc3n(c(=N)c12)CCC3=Cc1ccccc1Br` fall in the same range of Ki: 100 to 1000 nM for the first, 100 to 1000 nM for the second.

First: CC(C)(C)c1cc2c(cc1Br)CN1CCC(=Cc3ccccc3Cl)C1=N2
Second: CCC1CC(=Cc2ccccc2Cl)C2=Nc3ccccc3CN21 (stereo not shown)
The Ki of the first is higher: 1000 to 10000 nM for the first, 100 to 1000 nM for the second.

Compared with `Fc1ccc(C2CC(=Cc3ccccc3Br)C3=Nc4ccccc4CN32)cc1` (stereo not shown), `CCCCC1CC(=Cc2ccccc2Br)C2=Nc3ccccc3CN21` (stereo not shown) is lower in Ki: 1000 to 10000 nM for the first, 100 to 1000 nM for the second.

First: COC(=O)C1CC(=Cc2ccccc2Br)c2nc3ccccc3c(=N)n21 (stereo not shown)
Second: N=c1c2ccccc2nc2n1C(C(N)=O)CC2=Cc1ccccc1Br (stereo not shown)
The Ki of the first is lower: 100 to 1000 nM for the first, 1000 to 10000 nM for the second. The first binds more tightly here.

Compared with `CN=c1c2ccccc2nc2n1CCC2=Cc1ccccc1Br`, `N#CN=c1c2ccccc2nc2n1CCC2=Cc1ccccc1Br` is higher in Ki: 100 to 1000 nM for the first, 1000 to 10000 nM for the second.

`N=c1c2c(F)cccc2nc2n1CCC2=Cc1ccccc1Br` was tested, and the Ki was 100 to 1000 nM.
